Experimental data as given in PMC6155208.

Target: α-Synuclein
Test: small-angle neutron scattering (SANS); αS at 2.5 or 5 mg/ml in 5 mM Mes pH 6.5 in D2O; oligomers collected at the oligomer collection time in the early lag phase of fibrillation; fit with the polydisperse Gaussian Coil model (Triaxial Ellipsoid model for comparison); size of the oligomer from the volume of the oligomer divided by that of one αS molecule

Substance: α-Synuclein (natural protein)
- population of oligomers, TE model: 25%
- population of oligomers, pGC model: 68%
- stoichiometry N: 18
